Data reported in patent US9314525B2, “Picropodophyllin polymorph C and its use in cancer therapy” (Axelar AB, priority 2010, dated 2016).

Experiment: Powder dissolution profiling (intrinsic dissolution rate and apparent solubility) in PhB 6.5 and FeSSIF pH 6.5
Settings: 37 °C, pH 6.5, fessif, thermodynamic from solid, Apparent Solubility assay 1, FeSSIF pH 6.5, 37° C.; assay time polymorph B 16 hours, polymorph C 1.3 hours; triplicate
Procedure: Phosphate buffer pH 6.5 (PhB 6.5) was prepared according to a protocol by Galia and co-workers (Galia, E., et al. Evaluation of various dissolution media for predicting in vivo performance of class I and II drugs. Pharm Res 15, pp. 698-705 (1998)). Briefly, 1000 mL of […] Na2HPO4 buffer pH 6.5 was prepared by dissolving 3.95 g Na2HPO4xH2O, 6.19 g NaCl and 0.42 g NaOH in a volumetric flask by adding purified water. The pH was adjusted to pH to 6.5 by titration with 0.5 M NaOH and the volume was adjusted to 1000 mL with purified water. This buffer was sterile filtered and thereafter stored in refrigerator. […]
Dissolution rate and apparent solubility was measured with the pDISS Profiler™ (pION INC, MA, USA) from 0.3-1.3 mg compound weighed into the vial to which the preheated (37° C.) dissolution medium was added. […] The obtained results were analysed with the software accompanying the pDISS equipment. […]

Molecule COc1cc([C@@H]2c3cc4c(cc3[C@H](O)[C@H]3COC(=O)[C@@H]23)OCO4)cc(OC)c1OC [polymorph C, picropodophyllin] has a solubility of 0.0129 ± 0.00017 mg/mL (≈ 31.2 µM).

Converted amounts (≈) assume the structure as drawn.
